# Measurements reported in US4386099A, “Imidazolylphenyl amidines, pharmaceutical compositions containing same and use thereof” (Istituto de Angeli S.p.A., priority 1980, dated 1983).
# Protein sequences, listed by entry. Tags and fused reporters are not part of them.
# UniProt P47747, whole entry: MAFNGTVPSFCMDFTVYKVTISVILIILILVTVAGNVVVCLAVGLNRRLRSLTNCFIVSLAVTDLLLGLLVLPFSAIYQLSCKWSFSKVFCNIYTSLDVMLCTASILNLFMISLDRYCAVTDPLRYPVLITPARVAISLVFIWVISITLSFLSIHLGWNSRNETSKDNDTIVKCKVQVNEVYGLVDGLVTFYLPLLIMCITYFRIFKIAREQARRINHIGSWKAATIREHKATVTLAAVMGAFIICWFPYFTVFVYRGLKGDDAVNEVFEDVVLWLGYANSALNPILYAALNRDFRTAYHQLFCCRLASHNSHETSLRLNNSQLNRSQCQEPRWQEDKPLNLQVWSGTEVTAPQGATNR
# pEC50: −log10 of the molar value.
# Target: T1, histamine H2-receptors (Cavia porcellus, UniProt P47747)
# T1 construct: isolated guinea pig atria suspended in an organ bath; from tissue; host or cells: isolated guinea pig atria
# Experiment: In vitro inhibitory activity in histamine-induced tachycardia (positive chronotropic effect, isolated guinea pig atria)
# Type: cell-based
# Experimental: The positive chronotropic effect has been investigated in isolated guinea pig atria suspended in an organ bath (50 ml) containing oxygenated (O2 : 95%, CO2 : 5%) Krebs-Henseleit solution (pH 7.4) maintained at 32° C. The myocardial preparation, loaded at 1 gm of isometric tension, is allowed to stabilize for 60 minutes and myocardial contractions are recorded through an isometric lever connected to a strain-gauge coupler. The instantaneous rate is monitored with a cardiotachymeter and a heat-writing pen recorder. After a control run, responses (tachycardia) to histamine (10^-6 g/ml) are obtained three times at 30 minute intervals. The test compounds are added to the bath to the desired final concentration, and the atria are again injected with histamine. The chronotropic response obtained in the presence of the antagonist is then compared to the control response to histamine, and the percent reduction of the histamine H2 -evoked response is calculated. The average effective concentration (EC50) of the H2 -antagonists is also calculated by standard repression analysis of the dose percentage response curve determined according to D. R. Waud, Analysis of Dose-response Curves, in "Methods in Pharmacology", vol. 3 Smooth Muscle, Ed Daniel E. E. Patron, M., Plenum Press. New York (1975), and Ash and Schild, Br. J. Pharmacol. Chemother. 27 427-439 (1966).
compound,measurement,value
CN/C(=N/CCSCc1nc[nH]c1C)NC#N [Cimetidine],pEC50,5.47
